Laboratory results reported in ChEMBL document CHEMBL2384981, “Synthesis and structure-activity relationships of a novel and selective bone morphogenetic protein receptor (BMP) inhibitor derived from the pyrazolo[1.5-a]pyrimidine scaffold of dorsomorphin: the discovery of ML347 as an ALK2 versus ALK3 selective MLPCN probe” (Bioorg Med Chem Lett, 2013).

By UniProt entry, the sequences of proteins in these tests, tags left out. Where a name states a change or a piece, a line headed by the entry shows the natural chain unless it says otherwise.
UniProt P36894: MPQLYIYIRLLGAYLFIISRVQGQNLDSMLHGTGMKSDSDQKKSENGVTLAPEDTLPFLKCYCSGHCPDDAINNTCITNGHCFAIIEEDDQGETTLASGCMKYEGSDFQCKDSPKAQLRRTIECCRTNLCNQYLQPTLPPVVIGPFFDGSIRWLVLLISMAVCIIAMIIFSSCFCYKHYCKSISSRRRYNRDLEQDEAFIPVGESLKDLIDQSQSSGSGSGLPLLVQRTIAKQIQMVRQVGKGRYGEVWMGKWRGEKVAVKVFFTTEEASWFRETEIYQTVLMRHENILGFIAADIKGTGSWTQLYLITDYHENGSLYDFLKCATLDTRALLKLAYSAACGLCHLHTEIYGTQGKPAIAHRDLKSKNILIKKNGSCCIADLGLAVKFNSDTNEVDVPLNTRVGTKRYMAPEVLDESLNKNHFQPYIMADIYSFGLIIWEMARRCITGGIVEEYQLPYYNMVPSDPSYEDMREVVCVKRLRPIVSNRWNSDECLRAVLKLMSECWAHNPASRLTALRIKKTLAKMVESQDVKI
UniProt P37023, whole entry: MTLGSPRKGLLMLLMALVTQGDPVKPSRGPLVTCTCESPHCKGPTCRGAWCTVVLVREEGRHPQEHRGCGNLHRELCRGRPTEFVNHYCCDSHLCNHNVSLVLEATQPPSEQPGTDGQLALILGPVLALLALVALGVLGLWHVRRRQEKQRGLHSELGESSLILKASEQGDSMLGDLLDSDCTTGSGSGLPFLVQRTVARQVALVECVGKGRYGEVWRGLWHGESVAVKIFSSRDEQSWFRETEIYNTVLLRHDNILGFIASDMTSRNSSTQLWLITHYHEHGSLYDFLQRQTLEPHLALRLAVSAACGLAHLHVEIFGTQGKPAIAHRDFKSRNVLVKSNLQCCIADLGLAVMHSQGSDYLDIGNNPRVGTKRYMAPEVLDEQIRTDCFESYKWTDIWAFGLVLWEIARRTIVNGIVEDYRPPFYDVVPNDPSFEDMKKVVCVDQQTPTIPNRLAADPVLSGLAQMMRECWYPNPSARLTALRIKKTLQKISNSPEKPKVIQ
UniProt Q13131: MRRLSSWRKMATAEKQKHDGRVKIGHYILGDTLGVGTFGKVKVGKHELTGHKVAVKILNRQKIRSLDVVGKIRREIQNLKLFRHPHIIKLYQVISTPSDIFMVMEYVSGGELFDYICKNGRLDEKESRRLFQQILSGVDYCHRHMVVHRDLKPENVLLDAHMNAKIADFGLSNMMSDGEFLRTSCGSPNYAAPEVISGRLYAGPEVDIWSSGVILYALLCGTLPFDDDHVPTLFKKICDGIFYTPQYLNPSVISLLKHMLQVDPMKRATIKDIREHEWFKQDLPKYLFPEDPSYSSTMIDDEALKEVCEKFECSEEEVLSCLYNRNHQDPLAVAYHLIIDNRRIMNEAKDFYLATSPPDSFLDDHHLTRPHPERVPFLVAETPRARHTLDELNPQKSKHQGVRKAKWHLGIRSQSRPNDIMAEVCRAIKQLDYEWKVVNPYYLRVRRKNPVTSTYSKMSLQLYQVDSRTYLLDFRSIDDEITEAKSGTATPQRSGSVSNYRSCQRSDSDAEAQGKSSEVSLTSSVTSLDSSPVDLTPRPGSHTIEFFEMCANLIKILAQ

Legend:
[1] = target: Bone morphogenetic protein receptor type-1A (Homo sapiens, UniProt P36894); assay: Inhibition of ALK3 (unknown origin)
Method in brief: (§1)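 Radiometric in vitro kinase assay on human kinases with 10 μM (33P)γATP.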

[2] = target: Activin receptor type-1-like (Homo sapiens, UniProt P37023); assay: Inhibition of ALK1 (unknown origin); method in brief: as §1
[3] = target: 5'-AMP-activated protein kinase catalytic subunit alpha-1 (Homo sapiens, UniProt Q13131); assay: Inhibition of AMPK (unknown origin); method in brief: as §1

Structure (SMILES) | IC50 [1] | IC50 [2] | IC50 [3]
c1cc(N2CCNCC2)ccc1-c1cnc2c(-c3cn[nH]c3)cnn2c1 | 55 nM | 55 nM | –
c1ccc2c(-c3cnn4cc(-c5ccc(N6CCOCC6)cc5)cnc34)ccnc2c1 | – | – | 2680 nM
